## Apparent affinities of Ab-14 variants for a coronavirus HR2 peptide

Reference: Li et al. 2023, doi:10.1038/s41467-023-39022-2. File: FLAb, binding data.

The target is the same throughout: PDVDLGDISGINAS, from the HR2 region of SARS-CoV-2 spike.

Parent scFv Ab-14: VH joined to VL by a (GGGGS)3 linker. Changes lie in the heavy chain CDRs alone.
VH: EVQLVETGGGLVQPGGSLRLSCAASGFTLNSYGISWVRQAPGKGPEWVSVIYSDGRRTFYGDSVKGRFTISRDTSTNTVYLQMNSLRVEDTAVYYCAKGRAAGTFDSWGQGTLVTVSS
VL: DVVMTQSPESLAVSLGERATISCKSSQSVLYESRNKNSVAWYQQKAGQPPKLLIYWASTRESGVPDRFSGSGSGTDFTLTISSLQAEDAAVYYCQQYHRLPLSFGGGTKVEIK

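Phage display of a naive human antibody library on the peptide gave the parent. The variants were designed computationally from a first round of random CDR variants and then made and measured. Several design methods are mixed in this list. The scFvs were displayed on barcoded MATa yeast, the peptide on MATalpha yeast. After mating in shaken culture at 30 °C for 16 h, diploids were selected and their barcode pairs sequenced. A regression on co-assayed BCL2-family reference pairs converts the normalised counts of each replicate to an apparent Kd. Mating was done six times.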

The parent's heavy chain CDRs are GFTLNSYGIS, VIYSDGRRTFYGDSVK, GRAAGTFDS; each variant's own CDRs replace them letter for letter.
This list holds designs with at most six substitutions.
Numbers give log10(Kd / nM), so 0 is 1 nM and 3 is 1 µM. Smaller is tighter.
An entry "ND" has no value in the source: the pair was not observed among the diploids in that replicate. This suggests poor binding but is not conclusive.
Of ten entries with the parent sequence, four were seen in most replicates (averages 0.34 to 2.37), three in one and three in none, so single entries are noisy.
A sequence measured in both rounds can read differently, since the two assays cover different ranges.
Some sequences occur more than once in the pool; their replicates are listed entry by entry, parted by semicolons.
Background: pairings of all heavy chain designs with three empty control strains gave a value in 1% of cases (median 2.08, 5th percentile 0.84). Values in that range, when seen in few replicates, are hard to tell from nonspecific mating.
The authors' rule: three or more of the six replicates give a measured affinity, fewer mean a poor binder.

Variant GFSLNDYGIS | VIYSDGRRTFYGDSVK | GQAAGTFDL showed 0.60, 0.97, 0.61, 1.18, 0.74, 0.45. With GFTLNSYGIS | VIYSDGMHTFYGDSVK | GRVAGTWDS the result was ND, ND, ND, ND, ND, 1.89. For GFTLNSYGIS | VIYSDGRRTFYGDSVK | GKAAFTFES, the assay gave ND, ND, ND, ND, ND, ND. Variant GFTLNSYGIS | VIYSDGRRTFYGDSVK | HRNCGTFDS gave ND, ND, ND, ND, ND, ND. For GFTLNSYGIS | VIYSDGRRTFYSDSVK | GKDAGTFDS, the assay gave 0.84, 1.06, 0.05, 1.99, 0.46, 1.26. For GVGRNMYGIS | VIYSDGRRTFYGDSVK | GRAAGTFDS, the assay gave ND, ND, ND, ND, ND, ND.

Variant GFTINSYGIS | VIYSDGRRTQYIDSVK | GRAAITFDS gave ND, ND, ND, ND, ND, ND. With GFNLNSYGIS | VIYADGRRTFYSDSVK | DRAAGRFDS the result was ND, ND, ND, ND, ND, ND. Variant GFNLNSYGIS | VIYSDGRRTFYIDSVK | GRSAGTFDS showed ND, ND, ND, ND, ND, ND. With GFELNEYGIS | VIYSDGRRTFYGDSVK | GRMAGTFDG the result was 1.71, 0.89, 0.63, 0.76, 1.28, 1.33. For GFDLNSYGIS | VIYSDGRRTFYHDSVK | GRVAGTFDS, the assay gave 0.20, 0.28, 0.67, 0.34, 1.14, ND. Variant GFDLNSYGIS | VIYSDGRRTFYQDDVK | GKAAGTFDS showed 0.35, 0.41, 0.29, 0.01, 0.33, 0.60.

Variant GFTLNSYGIS | VIYSDGRRTAYSDSVK | GRAAGGFDS gave ND, ND, ND, ND, ND, ND. Variant GFTLNSYGIS | VIYSDGRRTFYGDSVK | GKADGTFDS gave ND, ND, ND, ND, ND, ND. For GFTLNSYGIS | VIYSDGRRTFYGDSFK | GRAPGTFKA, the assay gave ND, ND, ND, ND, ND, ND. Variant GFELNSYGIS | VIYADGRRTFYGDNVK | GKAAGTFDS gave 0.39, -0.03, -0.41, -0.50, -0.16, -0.10. With GFSLNMYGIS | VIYSDGRRTFYIDSVK | GRQAGTFDS the result was 0.85, ND, ND, 1.43, ND, 1.55. Variant GFTLNEYGIS | VIYSDGRRTFYEDDVK | GRQAGTFDS gave 0.34, 0.66, 0.36, -0.07, 0.52, 1.06.

With GFTLNSYGIS | VIYSDGRRTFYGDSVK | GPAAGLFPL the result was ND, ND, ND, ND, ND, ND. Variant RFTLNSYGIS | VIYSDGRRTFYGDSVK | GRAAGTFDS gave ND, ND, ND, ND, ND, ND. For GFTLESYGIS | VIYADGRRTFYGDSVK | GRAAGTFDD, the assay gave -0.05, -0.10, -0.04, 0.67, -0.37, 0.30. With GFTVNSYGIS | VIYSDGRRTFYGDSVK | VRAGGSFSC the result was ND, ND, ND, ND, ND, ND. Variant GFSLNSYGIS | VIYSDGRRTFYKDSVK | GRYAGTFDS showed ND, -0.02, ND, 1.64, 0.44, ND. Variant GFTLNEYGIS | VIYSDGRRTFYGDSVK | GREAGTFDT gave -0.37, -0.42, -0.37, -0.48, -0.41, -0.44.

With GFSLNMYGIS | VIYSDGRRTFYADSVK | GRAAGTFDS the result was 0.78, 0.73, 0.57, 0.68, 0.51, 0.76. For YFSLNDYGIS | VIYSDGRRTFYGDSVK | GRTAGTFDS, the assay gave ND, 2.91, ND, 1.42, 1.42, 2.90. Variant GFTLNSYGIS | VIYSDGRRTFYDDQVK | GQLAGTFDS showed 2.26, 2.16, 2.41, 2.35, 1.81, 2.10. For GFELNSYGIS | VIYADGMRTFYGDSVK | GRAAGTFDS, the assay gave 0.20, 0.43, -0.02, 0.01, 0.10, 0.66. With GFTLNSYSIS | VIYSDGRRTFYGDKVK | GRAAGTFDS the result was ND, ND, ND, ND, ND, ND; ND, ND, ND, ND, ND, ND. With GFTLNSYGIS | VIYSDGLRTFYSDSVK | GRAAGTFDS the result was 1.00, 0.69, 1.42, 0.52, 0.92, 0.88.

Variant GFDLNEYGIS | VIYADGSRTFYADSVK | GNAAGTFDS showed 0.03, -0.08, -0.06, -0.40, -0.47, -0.22. Variant GFTLNEYGIS | VIYSDGRRTFYGDSVK | GRNAGTFMT gave ND, ND, ND, ND, 2.28, ND. Variant GFSLNSYGIS | VIYSDGYRTFYGDSVK | GRTAGTFDS showed ND, 0.86, 1.47, 0.99, 1.24, 1.23. For GFSLNDYGIS | VIYSDGRRTFYADSVK | GRTAGTFDS, the assay gave 0.57, 0.04, -0.02, -0.09, 0.11, 0.36. With GFTLNDYGIS | VIYSDGRRTFYDDSVK | GRAAGTFMS the result was ND, ND, ND, ND, ND, ND. Variant GFGLNSYGIS | VIYSDGRRTFYGDAVK | GRTAGTFDS gave 1.54, 1.04, 0.92, 0.44, 1.06, 0.80.

With GFSLNEYGIS | VIYSDGRRTFYGDSVK | GRTAGTFDV the result was -0.50, -0.24, 0.25, -0.09, 0.22, -0.01. With GFWLNDYGIS | VIYSDGRRTFYDDSVK | GRTAGTFDS the result was ND, 0.76, 0.40, 0.98, 0.91, 1.02. For GFDLNSYGIS | VIYSDGRRTFYGDKVK | GQEAGTFDS, the assay gave 0.32, 0.85, 0.14, 0.13, 0.43, 0.17. Variant GFTLDSYGIS | VIYSDGRRTFYCDSVK | GRAAGTFDS showed ND, 1.56, 1.66, ND, 2.03, 1.72. Variant GFTLNSYGIS | VIYSDGRRTAYGDSVK | GQAAGTFDS showed 1.02, 0.80, 0.96, 0.94, 1.31, 1.13. Variant GFDLNEYGIS | VIYADGRRTFYSDSVK | GEAAGTFDT showed 0.01, -0.12, -0.27, -0.32, -0.16, 0.14.

Excerpt, the first 3 entries:

{"CDR-H1": "GFSLNDYGIS", "CDR-H2": "VIYSDGRRTFYGDSVK", "CDR-H3": "GQAAGTFDL", "log10 Kd, replicates": "0.60, 0.97, 0.61, 1.18, 0.74, 0.45"}
{"CDR-H1": "GFTLNSYGIS", "CDR-H2": "VIYSDGMHTFYGDSVK", "CDR-H3": "GRVAGTWDS", "log10 Kd, replicates": "ND, ND, ND, ND, ND, 1.89"}
{"CDR-H1": "GFTLNSYGIS", "CDR-H2": "VIYSDGRRTFYGDSVK", "CDR-H3": "GKAAFTFES", "log10 Kd, replicates": "ND, ND, ND, ND, ND, ND"}